Values quoted from earlier work, collected in PMC5104425, “A Novel Selective Inhibitor of Delta-5 Desaturase Lowers Insulin Resistance and Reduces Body Weight in Diet-Induced Obese C57BL/6J Mice” (PLoS ONE, 2016).

Tested on: cannabinoid receptor 1 (CB1)
Conditions: cited from earlier work

Cc1c(C(=O)NN2CCCCC2)nn(-c2ccc(Cl)cc2Cl)c1-c1ccc(Cl)cc1 [rimonabant]
UCP1 expression in interscapular BAT and WAT adipocytes (chronic treatment, rodents): upregulated
body weight (due to decreased food intake and increased energy expenditure): weight loss
